Measured values published in article PMC7321161, “The Intriguing Effects of Substituents in the N-Phenethyl Moiety of Norhydromorphone: A Bifunctional Opioid from a Set of “Tail Wags Dog” Experiments” (Molecules, 2020).

Chains of the proteins cited; added tags and fusions are not shown. Lines headed by an entry give the natural chain unless they say otherwise; changes in a name come on top.
UniProt P33533, whole entry: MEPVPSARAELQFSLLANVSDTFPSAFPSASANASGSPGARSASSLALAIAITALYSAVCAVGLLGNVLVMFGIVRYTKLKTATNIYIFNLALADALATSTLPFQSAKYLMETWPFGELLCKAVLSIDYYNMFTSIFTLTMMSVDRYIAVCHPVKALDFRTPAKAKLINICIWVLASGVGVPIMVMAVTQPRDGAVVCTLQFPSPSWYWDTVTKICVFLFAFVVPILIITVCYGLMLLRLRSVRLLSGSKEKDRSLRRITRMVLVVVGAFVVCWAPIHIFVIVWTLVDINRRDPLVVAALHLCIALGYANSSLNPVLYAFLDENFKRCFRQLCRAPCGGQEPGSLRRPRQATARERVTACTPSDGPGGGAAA

Biological target: T1, δ-opioid receptor (DOR) (Rattus norvegicus, UniProt P33533)
T1 construct: Frozen whole rat brains excluding cerebellum were thawed on ice; from tissue; host or cells: whole rat brain excluding cerebellum, membrane homogenate
Assay: Opioid receptor binding, δ sites ([3H]DADLE), rat brain homogenate
Conditions: radioligand displacement at 100 nM

CN1CC[C@]23c4c5ccc(O)c4O[C@H]2[C@@H](O)C=C[C@H]3[C@H]1C5 [Morphine, reference compound]
DOR Binding, exploratory binding assay: NT (NT = not tested—inactive (<50% activity at 100 nM concentration in exploratory binding assays (displaced less than half of radioligand))
